Assay outcomes from PubChem.
G9a inh = blocks human histone lysine methyltransferase G9a. Potency, µM (doses to about 102 µM), most hits filed as inhibitors. hit rate 8.8% among 350,000. Q96KQ7. G9a H3K9 monomethylation, AlphaScreen, 2 h; further: nearly all actives have a fitted effect of over 75% in size
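Signal arises when biotinylated H3K9 peptide, once monomethylated, bridges streptavidin donor and antibody-captured acceptor beads. Enzyme at 20 nM was preincubated 15 min with test compounds; peptide 500 nM and SAM 20 uM then reacted for 2 h.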
miR-21 reporter = miR-21 reporter, rising signal; HeLa miR-21 FLuc reporter, luciferase, 48 h; Potency, µM (highest dose often 38.3 µM); 340,000 tested, under 10 active; AID 2288; active = well fitted rising curve with a large enough effect; inconclusive = small, poorly fitted or top-dose-only effect; inactive = no such curve, though single readings can be large or run the other way;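 further: miR-21 action dims this reporter so a rising signal means less miR-21 action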
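HeLa cells stably expressing CMV-driven firefly luciferase with a downstream miR-21 binding sequence, endogenously expressing miR-21, were treated with titrations (up to about 40uM final) for 48 hours at 37 degree Celsius. Luciferase luminescence was read after lysis.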
Sfp PPTase inh = Sfp phosphopantetheinyl transferase inhibition. Biochemical Sfp PPTase activity, qHTS. Potency, µM, actives largely listed as inhibitors. hit rate 3.5% among 310,000;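 further: the enzyme is Sfp with the accession as filed and its product quenches rhodamine fluorescence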
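Buffer: 50 mM Hepes-Na pH 7.6, 10 mM MgCl2, 0.01% Nonidet P-40, 0.01% BSA. Enzyme 15 nM, pre-exposed to compound 15 min; substrates then added and fluorescence change tracked over 30 min.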
JMJD2E inh = blocks human JMJD2E demethylase activity; B2RXH2; JMJD2E catalytic domain, FDH-coupled NADH fluorescence (FDH is formaldehyde dehydrogenase); Potency, µM (series often up to 57.1 µM), usual class: inhibitors; hit rate 1.6% among 230,000; active means well fitted inhibition curve with a large enough effect, not every such curve was filed as active; inconclusive means small, poorly fitted or top-dose-only effect, or another doubt; inactive means no such curve, though single readings can be large or run the other way; further: nearly all actives have a fitted effect of over 50% in size
ALDH1A1 block = inhibitors of human aldehyde dehydrogenase 1A1. P00352. Purified ALDH1A1, NADH fluorescence, propionaldehyde substrate. Potency, µM (titrated, usually from 75.3 µM), actives largely listed as inhibitors. hit rate 7.3% among 220,000. AID 1030; active means well fitted inhibition curve with a large enough effect, not every such curve was filed as active; inconclusive means small, poorly fitted or top-dose-only effect, or another doubt; inactive means no such curve, though single readings can be large or run the other way
LMNA splice mod = changes lamin A minigene splicing in HeLa cells | HeLa LMNA splicing GFP/RFP minigene ratio, 48 h | Potency, µM (doses to about 46.1 µM), hits mostly inhibitors | hit rate 0.01% among 200,000; active means well fitted inhibition curve with a large enough effect in the signal ratio, with a control signal flat, not every such curve was filed as active; inconclusive means small, poorly fitted or top-dose-only effect, or effect the other way, or a change in a side signal; the % refers to the signal ratio
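S3 HeLa stable clones carrying a lamin A-EGFP splicing minigene plus DsRed2 were seeded at 600 cells/well in Opti-MEM with 2% FBS, pin-dosed and incubated 48 h at 37°C. Acumen cytometry (488 nm) gave the GFP/RFP total-intensity ratio.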
Sfp inh conf = confirmation of Bacillus subtilis Sfp PPTase inhibitors | shares compounds with Sfp PPTase inh | Sfp PPTase enzymatic assay, qHTS titration | Potency, µM (highest dose often 114 µM), actives largely listed as inhibitors | hit rate 79% among 380
Sfp PPTase gel = Inhibits B. subtilis Sfp phosphopantetheinylation; AID 2707; purified Sfp, gel-based phosphopantetheinylation read-out; Potency, µM, most hits filed as inhibitors; shares compounds with Sfp PPTase inh; hit rate 20% among 210;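 active means potency below 100 µM; inconclusive means dose-dependent response but potency above 100 µM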;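 further: potency is an IC50 for inhibitors of Sfp transfer activity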
Hits are given with their value; – = inactive; ? = inconclusive; · = no result; [ ] = dose if it differs, or a comment. This is a sample that favours compounds with a hit; in the whole collection about 13% have one here. Unless noted, the call rests on the fitted dose curve; in most records, active means well fitted curve in the direction sought with a large enough effect; inconclusive means small, poorly fitted or top-dose-only effect, or another doubt; inactive means no such curve, though single readings can be large; an effect the other way counts as inactive or inconclusive.

SMILES	G9a inh	miR-21 reporter	Sfp PPTase inh	JMJD2E inh	ALDH1A1 block	LMNA splice mod	Sfp inh conf	Sfp PPTase gel
CC1=CSC2=NC(=O)/C(=C\c3cccn3-c3ccc([N+](=O)[O-])cc3)C(=N)N12	–	–	1µM	–	–	–	37µM	–
CC1=NNC(=O)/C1=C\c1cn(-c2ccccc2)nc1-c1ccccc1	?	?	3.5µM	–	–	·	42µM	19µM
COc1ccc(/C=C\C(=O)NC2CC(=O)N(c3ccc(F)cc3)C2)cc1OC (stereo not drawn)	–	–	·	·	·	–	·	·
O=C(Cn1cc(S(=O)(=O)Cc2ccc(F)cc2)c2ccccc21)NCCc1ccccc1	–	–	·	·	·	–	·	·
Cc1ccn2c(Nc3ccc(F)cc3)c(-c3ccc(C)o3)nc2c1	–	–	·	·	·	·	·	·
Cc1ccc(-c2nc3cnccn3c2Nc2c(C)cccc2C)o1	45µM	–	0.5µM	–	?	?	4.2µM	–
CCCCN(CCCC)CC(O)c1cc(Cl)cc2c1-c1ccc(Cl)cc1/C2=C/c1ccc(Cl)cc1 (stereo not drawn)	–[2.33 µM]	·	45µM	·	·	·	42µM	?
C1=C(c2ccccc2)CCN(c2nc3ccccc3n3cnnc23)C1	22µM	–	28µM	?	28µM	–	37µM	·
CCOC(=O)C[n+]1c(C)sc2ccc(OC)cc21	1.3µM	–	1µM	–	6.3µM	–	6.6µM	–
Cc1ccc(C2=NN=C(NC(=O)CSc3nncn3C)SC2)cc1	22µM	–	8.9µM	–	?	–	26µM	·
CC=CC1=C(C(=O)O)N2C(=O)[C@H](NC(=O)[C@H](N)c3ccc(O)cc3)[C@@H]2SC1	?	·	40µM	·	?	·	37µM	19µM
N[C@@H](C(=O)N[C@@H]1C(=O)N2C(C(=O)O)=C(Cl)CS[C@H]12)c1ccccc1	50µM	–	50µM	?	?	–	74µM	56µM
CC1=C(C(N)=O)N2C(=O)[C@@H](NC(=O)Cc3ccccc3)C2SC1 (stereo partly drawn)	·	·	25µM	–	?	·	4.5µM	0.92µM
CC(=O)OCC1=C(C(=O)O)N2C(=O)[C@@H](NC(=O)CSc3ccncc3)[C@@H]2SC1	–[12.7 µM]	·	?	–	–	?	·	·
CC1(C)S[C@H]2[C@@H](NC(=O)C(N)c3ccccc3)C(=O)N2[C@H]1C(=O)O (stereo partly drawn)	·	·	–	?	–	·	·	·
CC(=O)OCC1=C(C(=O)O)N2C(=O)C(NC(=O)Cc3cccs3)C2SC1 (stereo not drawn)	·	·	–	?	–	·	·	·
Cc1cn2c(=O)cc(COC(=O)COc3ccc(C)c(C)c3)nc2s1	?	–	·	·	·	–	·	·
COc1ccc2occ(CC(=O)Nc3ccc(S(=O)(=O)Nc4nc(C)cc(C)n4)cc3)c2c1	–	–	·	·	·	·	·	·
O=C(CN1CCN(CC(=O)Nc2ccccc2Cl)CC1)Nc1ccc(F)c(F)c1	?	–	–	·	·	·	·	·
COc1ccc(C2C(C#N)=C(C)NC(C)=C2C(=O)OC(C)C)c(OC)c1 (stereo not drawn)	–	–	–	?	–	·	·	·
COc1ccc(CNC(=O)CN2C(=O)CSc3ccc(S(=O)(=O)N4CCCCC4)cc32)cc1	–	–	–	·	·	·	·	·
O=C(CSc1nnc(-c2ccc(Br)cc2)n1-c1ccccc1)c1ccccc1	–	–	·	·	·	?	·	·
CC(=O)Nc1ccc(-n2c(=O)c3ccccc3c3ccccc3c2=O)cc1	–	–	–	?	–	–	·	·
O=C(O)c1ccc(-n2c(=O)c3ccccc3c3ccccc3c2=O)cc1	–[0.501 µM]	–	7.9µM	–	–	·	74µM	?
CCOC(=O)c1cnc2c(ccc3ccccc32)c1Nc1ccc(C(C)=O)cc1	–	–	·	·	·	·	·	·
CCOC(=O)c1c(C)[nH]c(C2=NNC(=NC3CC3)SC2)c1C	18µM	–	7.1µM	–	18µM	–	42µM	·
CCOC(=O)c1c(C)[nH]c(C(=O)CSc2nnc(C3CC3)n2N)c1C	?	–	–	–	–	–	·	·
CCc1ccc(N2CCN(C(=O)c3ccc4c(c3)OCO4)CC2)cc1	–	–	–	·	·	·	·	·
CC(=O)N1CCN(c2ccc(NCc3ccc4c(c3)OCO4)cc2)CC1	?	–	16µM	?	?	–	21µM	–
